Where a chain is given by its changes, count along the chain named.
B1: bispecific antibody PD1b-E-LC (bispecific antibody)
heavy: not shown
light: EIVLTQSPATLSLSPGERATLSCRASENVGTYISWYQQKPGQAPRLLIYGASNRYTGIPARFSGSGSGTDFTLTISSLEPEDFAVYYCGESYGHLYTFGGGTKVEIKRTVAAPSVFIFPPSDEQLKSGTASVVCLLNNFYPREAKVQWKVDNALQSGNSQESVTEQDSKDSTYSLSSTLTLSKADYEKHKVYACEVTHQGLSSPVTKSFNRGECEPKSSDKTHTSPPSPEVQLVESGGGLVQPGGSLRLSCAVSGNIYNRNFMGWFRQAPGKGLEGVSAIYTGTSRTYYADSVKGRFTISRDNSKNTVYLQMNSLRAEDTAVYYCAADLREGFWDTGVWNTWGQGTLVTVSS
B2: bispecific antibody PD1a-E-LN (bispecific antibody)
heavy: not shown
light: EVQLVESGGGLVQPGGSLRLSCAVSGNIYNRNFMGWFRQAPGKGREGVSAIYTGTSRTYYADSVKGRFTISRDNAKNTVYLQMNSLRPEDTAVYYCAADLRDGFWDTGVWNTWGQGTLVTVSSEPKSSDKTHTSPPSPEIVLTQSPATLSLSPGERATLSCRASENVGTYISWYQQKPGQAPRLLIYGASNRYTGIPARFSGSGSGTDFTLTISSLEPEDFAVYYCGESYGHLYTFGGGTKVEIKRTVAAPSVFIFPPSDEQLKSGTASVVCLLNNFYPREAKVQWKVDNALQSGNSQESVTEQDSKDSTYSLSSTLTLSKADYEKHKVYACEVTHQGLSSPVTKSFNRGEC
B3: bispecific antibody PD1b-E-LN (bispecific antibody)
heavy: not shown
light: B2 light with R45L, A75S, P88A, D102E
B4: bispecific antibody PD1a-E-LC (bispecific antibody)
heavy: not shown
light: B1 light with L274R, S304A, A317P, E331D

Amino acid sequences for entries named in this document (tags omitted). Residues count along the entry.
UniProt Q08722, 19-323: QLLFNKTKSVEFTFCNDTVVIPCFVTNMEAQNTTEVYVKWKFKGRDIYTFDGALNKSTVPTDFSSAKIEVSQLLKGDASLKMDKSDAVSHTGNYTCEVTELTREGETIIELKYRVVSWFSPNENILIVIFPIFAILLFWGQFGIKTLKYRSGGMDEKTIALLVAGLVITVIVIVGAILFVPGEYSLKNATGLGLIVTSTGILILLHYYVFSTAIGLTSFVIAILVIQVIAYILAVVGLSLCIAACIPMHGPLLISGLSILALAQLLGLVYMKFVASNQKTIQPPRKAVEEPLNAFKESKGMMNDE

These binders were tested against CD47 (UniProt Q08722 19-323) (assay: FACS).

Binder	EC50 [nM]
B1	0.54
B2	1.62
B3	3.12
B4	0.984
